From EP4691487A1, “METHOD FOR INCREASING CONCENTRATION OF MACROMOLECULAR DRUG IN TUMOR TISSUE” (priority 2023, dated 2024)

What was measured:
[1] = tested on: human gastric cancer NCI-N87 cells and mouse embryonic fibroblasts NIH-3T3 cells; assay: Anti-tumor efficacy in subcutaneous xenograft co-inoculated with NCI-N87 and NIH-3T3 cells (Example 7); type: in vivo, BALB/c-nude mice
Description: Human gastric cancer cell line NCI-N87 (source: Nanjing Cobioer Biotechnology Co., Ltd., Art. No: CBP60491) was maintained and passaged by INXMED (NANJING) CO., LTD. Cells were cultured as monolayers in RPMI-1640 medium supplemented with 10% fetal bovine serum at 37°C in a 5% CO2 incubator. Cells were routinely digested and passaged two to three times weekly using trypsin-EDTA.
Mouse embryonic fibroblast NIH-3T3 cells (Nanjing Cobioer Biotechnology Co., Ltd., Art. No: CBP60317) were maintained and passaged by INXMED (NANJING) CO., LTD. Cells were cultured as monolayers in RPMI-1640 medium supplemented with 10% fetal calf serum at 37°C in a 5% CO2 incubator. Cells were routinely digested and passaged two to three times a week using trypsin-EDTA. When both cell lines reached the exponential growth phase and a confluence of 80%-90%, cells were harvested, counted, and inoculated.
For mice inoculated with a mixture of NCI-N87 and NIH-3T3 cells, 0.2 mL of a mixed cell suspension containing 10×10^6 NCI-N87 cells and 5×10^5 NIH-3T3 cells was subcutaneously inoculated into the right back of each mouse. On day 8 after inoculation, when tumor volumes reached approximately 154 mm^3, mice inoculated with a mixture of NCI-N87 and NIH-3T3 cells were randomly divided into groups based on tumor volume and dosed.
The experimental indicator is to examine whether tumor growth is inhibited, delayed, or cured. Tumor diameter is measured three times a week using a vernier caliper. Tumor volume is calculated using the formula: V = 0.5 × a × b^2, where a and b represent the major and minor diameters of the tumor, respectively.
The tumor inhibition efficacy of a compound was evaluated using the TGI (%), which reflects the rate of tumor growth inhibition. […]

[2] = Body weight, survival and tolerability in NCI-N87 & NIH-3T3 xenograft mice (Example 7); type: in vivo, BALB/c-nude mice
Description: The development of this experimental protocol and any modifications were evaluated and approved by the Institutional Animal Care and Use Committee (IACUC) before implementation. The use and welfare of experimental animals were conducted in accordance with the guidelines of the Association for Assessment and Accreditation of Laboratory Animal Care (AAALAC). Animal health and mortality were monitored daily. Routine examinations included observation of tumor growth and the effects of drug treatment on daily animal behavior, such as activity, food and water intake (visual observation only), body weight change, physical signs, or other abnormalities. Group deaths and adverse reactions were recorded based on the number of animals in each group.
The experiment was carried out according to the dosing regimen. During the experiment, the animals' activities such as feeding and drinking were observed every day, and the animal body weights were recorded three times a week. For the co-inoculated NCI-N87 human gastric cancer cells and NIH-3T3 mouse embryonic fibroblasts, on day 35 after grouping and dosing, the average body weight of the control group increased from 18.5 g on Day 0 to 22.0 g, with a body weight gain of 18.4%. […] The average body weight of the Enhertu + IN10018 (3 + 25 mg/kg) combination therapy group increased from 18.9 g on Day 0 to 20.7 g on Day 35, with a body weight change rate of 9.5%. […] Table 29: Evaluation of Body Weight Changes of the Test Substances in the BALB/c-nude Mouse Xenograft Model of NCI-N87 & NIH-3T3 Cells (Based on Data on Day 35 After Grouping and Dosing)

[3] = tested on: human rectal cancer xenograft model LD1-0038-361855; assay: Anti-tumor efficacy in human rectal cancer xenograft model LD1-0038-361855 (Example 9); type: in vivo, NU/NU mice
Description: Human rectal cancer tumor tissue (case model number: LD1-0038-361855) was passaged to FP5+2 and used in this efficacy study.
The tumor masses of human rectal cancer LD1-0038-361855 in vivo transplanted tumors were cut into pieces of approximately 3 mm × 3 mm × 3 mm (approximately 45 to 60 mg) and inoculated subcutaneously into NU/NU mice. The mice were observed after inoculation and the growth of the tumor was monitored. On the 23rd day after inoculation, when the average tumor volume of the tumor-bearing mice reached 156.69 mm^3, grouping and dosing were performed. The day of grouping and dosing was defined as day 0. Dosing and Grouping
Measurement of tumor volume and body weight of tumor-bearing mice: Tumor volume was measured twice a week using a vernier caliper, and the formula for calculating tumor volume was V = 0.5 a × b^2, where a and b represent the long and wide diameters of the tumor, respectively; Relative tumor proliferation rate T/C (%): The calculation formula is as follows: T/C % = TRTV / CRTV × 100 % (TRTV: RTV of the treatment group; CRTV: RTV of the negative control group). The relative tumor volume (RTV) was calculated based on the results of tumor measurement using the formula RTV = TVi /TV0, where TV0 is the average tumor volume measured at the time of grouping and dosing (i.e., d0), and TVi is the average tumor volume at a particular measurement. TRTV and CRTV data were taken on the same day.
(§1) Tumor growth inhibition rate TGI (%) = [1-(Tti-Tt0)/ (Vci-Vc0)] ×100, Tti is the average tumor volume of the compound group after the start of dosing, Tt0 is the average tumor volume of the compound group at the first dose, Vc0 is the average tumor volume of the vehicle control group at the first dose, and Vci is the average tumor volume of the vehicle control group after the start of dose.
At the end of the experiment, the tumor masses were weighed and photographed.
(§2) All data are expressed as mean ± SEM, where SEM = SD/SQRT (n), and n = number of animals in each experimental group. One-way ANOVA was used to compare tumor volumes between the treatment and control groups. All data were analyzed using GraphPad, and p < 0.05 was considered significant.

[4] = tested on: human ovarian cancer xenograft model LD2-0032-200651; assay: Anti-tumor efficacy in human ovarian cancer xenograft model LD2-0032-200651 (Example 10); type: in vivo, NU/NU mice
Description: Human ovarian cancer (poorly differentiated adenocarcinoma) tumor tissue (model number LD2-0032-200651) was passaged to FP3+5 and used in this efficacy experiment.
The tumor masses of human ovarian cancer LD2-0032-200651 in vivo transplanted tumors were cut into pieces of approximately 3 mm × 3 mm × 3 mm (approximately 45 to 60 mg) and inoculated subcutaneously into NU/NU mice.
The mice were observed after inoculation and the growth of the tumor was monitored. On the Day 18 after inoculation, when the average tumor volume of the tumor-bearing mice reached 180.47 mm^3, the grouping and dosing were performed. The day of grouping and dosing was defined as Day 0. Dosing and Grouping
The first dose of Enhertu began on the third day after grouping.
Tumor volume and tumor-bearing mouse weight were measured twice a week using a vernier caliper. The tumor volume was calculated as V = 0.5 a × b^2, where a and b represent the long and wide diameters of the tumor, respectively; Relative tumor proliferation rate T/C (%): The calculation formula is as follows: T/C % = TRTV / CRTV × 100 % [formula] (TRTV: RTV of the treatment group; CRTV: RTV of the negative control group).
(§3) The relative tumor volume (RTV) was calculated based on the results of tumor measurement using the formula RTV = TVi /TV0, where TV0 is the average tumor volume measured at the time of grouping and dosing (i.e., do), and TVi is the average tumor volume at a particular measurement. TRTV and CRTV data were taken on the same day.
as §1
The body weight of all tumor-bearing mice was measured twice weekly. The relative weight change after dosing was calculated: RCBW(%) = (BWi - BW0)/BW0×100, where BWi is the weight after the start of dosing and BW0 is the weight at the time of the first dose. Tumor masses were weighed and photographed at the end of the experiment.
as §2

[5] = tested on: LU-01-1626 human lung cancer patient-derived xenograft (PDX) model; assay: Anti-tumor efficacy in LU-01-1626 human lung cancer PDX model (Example 11); type: in vivo, female NOD-SCID mice
Description: Human lung cancer tumor tissue, passaged to FP5, was used in this efficacy experiment.
Each mouse was inoculated subcutaneously with a LU-01-1626 FP5 tumor piece (approximately 30 mm^3) on the right flank for tumor growth. Treatment began on Day 18 after tumor implantation, when the average tumor size reached approximately 109 mm^3. The animals were divided into groups using Excel-based randomization software and stratified randomization was performed according to their tumor volume. Each group consisted of 4 tumor-bearing mice. The test samples were administered to the mice according to the protocol shown in Table 40 of the experimental design.
The primary endpoint was whether tumor growth could be delayed or if the mice could be cured. Tumor volume and tumor-bearing mouse weight were measured twice a week using a vernier caliper. The tumor volume was calculated as V = 0.5 a × b^2, where a and b represent the long and wide diameters of the tumor, respectively.
as §1
Relative tumor proliferation rate T/C (%): The calculation formula is as follows: T/C % = TRTV / CRTV × 100 % [formula] (TRTV: RTV of the treatment group; CRTV: RTV of the negative control group).
as §3
One-way analysis of variance was performed to compare tumor volumes between groups. […] All data were analyzed using SPSS 29.0, and p < 0.05 was considered statistically significant.

Enhertu
Tumor volume on day 0 (mm^3) ([1]; day 0 of grouping and dosing (baseline), mean ± SEM): 154.5±10.6 mm^3
TGI (%) ([1]; day 35, Enhertu 3 mg/kg i.p. Day 7, Day 28, IN10018 25 mg/kg PO QD x 5W): -3.8%
Tumor volume on day 35 (mm^3) ([1]; day 35, Enhertu 3 mg/kg i.p. Day 7, Day 28, IN10018 25 mg/kg PO QD x 5W, mean ± SEM): 1575.2±547.4 mm^3
tolerability ([2]; 35-day dosing cycle, Enhertu (3 mg/kg), IN10018 (25 mg/kg)): tolerated
Body weight change rate (%) ([2]; (W35-W0)/W0, day 35): 16.9%
Weight on day 0 ([2]; day 0 (baseline), mean ± SEM): 17.9 ± 0.3 g
Weight on day 35 ([2]; day 35, Enhertu 3 mg/kg, IN10018 25 mg/kg, mean ± SEM): 20.9 ± 0.6 g
Animal survival ([2]; number of animal survival on day 0/on day 35): 6/6
tumor volume growth inhibition rate TGI (%) ([3]; Day 24, Enhertu 3 single dose (D9) IV, IN10018 12.5 QD*25 PO): 83.27%
average tumor volume ([3]; Day 24, Enhertu 3 single dose (D9) IV, IN10018 12.5 QD*25 PO, mean ± SEM): 361.30 ± 113.01 mm^3
relative tumor proliferation rate T/C (%) ([3]; Day 24, TRTV/CRTV, Enhertu 3 single dose (D9) IV, IN10018 12.5 QD*25 PO): 26.11%
average tumor weights ([3]; end of the experiment (Day 24)): 0.278 ± 0.083 g
Tumor volume /Day 0 ([4]; Day 0 (baseline), mean ± SEM): 181.25± 16.18 mm^3
TGI(%) /Day 21 ([4]; Day 21): 43.20%
Tumor volume /Day 21 ([4]; Day 21, Enhertu 3 mg/kg QW*3 IV, IN10018 25 mg/kg QD*21 PO, mean ± SEM): 1294.64 ±285.36 mm^3
Relative tumor volume / Day 21 ([4]; Day 21, RTV = TVi/TV0): 5.54
T/C(%)/ Day 21 ([4]; Day 21, TRTV/CRTV): 61.08%
TGI (%) ([5]; Day 31, [1-(T31-T0)/(V31-V0)]×100): 70.28%
T/C (%) ([5]; Day 31, group mean tumor volume of treatment group divided by that of control group): 33.58%
Tumor volume (mm^3) Day 31 ([5]; Enhertu 10/3/6 mg/kg IV QW, IN10018 25/12.5 mg/kg PO QD, Mean ± SEM): 664 ± 157 mm^3
